Reference: BindingDB's records for doi:10.1021/acs.jmedchem.6b00871 (Arena Pharmaceuticals, 2017)

Experiment: Agonist activity at IP receptor in human primary platelets assessed as inhibition of ADP-induced platelet aggregation

IC50: 54 nM
SMILES: O=C(O)COC[C@H]1CC[C@@H](COC(=O)N(c2ccccc2)c2cccc(Cl)c2)CC1
